Source: patent publication US8080556B2, “2-amino pyrimidine compounds as potent HSP-90 inhibitors” (Pfizer Inc., priority 2008, dated 2011)

Molecular target: HSP-90 (Homo sapiens, UniProt P07900)
Settings: read-out: Kd of hot ligand; radioligand binding to HSP-90

With `[3H]CC([3H])CNC(=O)C1c2ccccc2CN1C(=O)c1cc(Cl)c(O)cc1O` (stereo not shown) [Compound A] the Kd was 0.04 µM.
